Measurements published in PubChem BioAssay AID624168 (Sanford-Burnham Center for Chemical Genomics, 2012).
The entries are a selection whose mix differs from that of the whole data set. Active and inactive are the calls of the source.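 How the source made its calls: active means activation of at least 8% versus controls, or a plate z-score of at least 8; inactive means the rest.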

Experiment: compounds raising alpha-dystroglycan glycosylation – uHTS, Pro5-aDG cells, AlphaScreen, primary screen (AID 624168);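 further: Pro5 are CHO cells carrying HIG-tagged alpha-DG that lacks glycosylation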
Settings: alpha-DG glycosylation AlphaScreen (IIH6), at 10 µM, active compounds read high, 0% Pro5, 100% B10-LARGE cell signal

SMILES | activation
CCOP(=O)(NC(=NC(C)c1ccccc1)NC(C)c1ccccc1)OCC (stereo not given) | inactive: -0.2%
Clc1n[nH]nc1-c1nn[nH][15n]1 | inactive: 0%
O=P1(N(CCCl)CCCl)NCCC(C(F)(F)F)O1 (stereo not given) | inactive: -0.3%
CC(C)(C)C(=O)NC(Sc1ncccn1)C(Cl)(Cl)Cl (stereo not given) | inactive: -0.1%
COc1ccccc1CNC(=O)COC(=O)C(O)(c1ccccc1)c1ccccc1 | inactive: 0.1%
CC1(CBr)Cn2c(nc3ccccc3c2=O)S1 (stereo not given) | inactive: -0.6%
CN(C(=O)Cc1ccc(Cl)c(Cl)c1)[C@@H]1CCCC[C@H]1N1CCCC1 | inactive: 0%
CC(C)/C=N\N=C(\N)N[N+](=O)[O-] | inactive: -0.5%
Cc1nn(-c2ccccc2)c2c1P(=O)(N1CCOCC1)N(C)C(c1ccccc1)=N2 (stereo not given) | inactive: 0.1%
Cc1ccc(C(=O)OC2CN3CCC2CC3)cc1 (stereo not given) | inactive: 0%
CC1CCC(C(C)C)C(OP(=O)(Nc2ccccn2)c2ccccc2)C1 (stereo not given) | inactive: -0.2%
O=C(/C=C/c1ccccc1)OC1CN2CCC1CC2 (stereo not given) | inactive: 0%
CCCC1OP(=O)(Nc2ccccc2)OCC1CC (stereo not given) | inactive: -0.2%
CN(C)C1(CNC(=O)c2ccc(S(C)(=O)=O)cc2)CCCCC1 | inactive: -0.1%
O=P1(Nc2ncccn2)COc2ccccc2OC1 | inactive: 0%
Cc1ccc(S(=O)(=O)N(CCCN)CCCc2c(C)nc(N)[nH]c2=O)cc1 | inactive: -0.2%
NS(=O)(=O)c1cccc(NC(=O)COC(=O)C(O)(c2ccccc2)c2ccccc2)c1 | inactive: -0.1%
O=P1(Nc2ccc(Br)cn2)COc2ccccc2OC1 | inactive: 0%
Cc1ccc(OCC(=O)OC2CN3CCC2CC3)cc1 (stereo not given) | inactive: -0.2%
O=[As](O)(c1cccs1)c1cccs1 | inactive: 0.1%
Nc1cccc([As](=O)(O)c2ccccc2)c1 | inactive: -0.1%
CS(=O)(=O)c1cc([N+](=O)[O-])c2no[n+]([O-])c2c1 | inactive: 0.1%
CCOP1(=S)c2c(C)nn(CCC#N)c2N=C(c2ccccc2F)N1C (stereo not given) | inactive: -0.1%

SMILES | activation
O=P(Nc1nccs1)(c1ccccc1)c1nc2ccccc2s1 (stereo not given) | inactive: 0.3%
O=P(Nc1nccs1)(Oc1ccccc1)Oc1ccccc1 | inactive: -0.3%
O=C(O)COc1ccc([As](=O)(O)O)cc1[N+](=O)[O-] | inactive: 0.4%
Nc1ccccc1[As](=O)(O)c1ccccc1 | inactive: 0%
NC(=O)Nc1ccc([As](=O)(O)O)cc1 | inactive: -0.1%
CN(C)C(=O)c1cc([N+](=O)[O-])cc2c1-c1c(cc([N+](=O)[O-])cc1[N+](=O)[O-])C2=O | inactive: -0.3%
O=[N+]([O-])c1ccc2c(c1)nnn2O | inactive: -0.2%
CN(C(=O)Cc1ccc(Cl)c(Cl)c1)[C@H]1CC[C@@]2(CCCO2)C[C@@H]1N1CCCC1 | inactive: 0.1%
N#CCCN(C(=O)COC(=O)C(O)(c1ccccc1)c1ccccc1)c1ccc(F)cc1 | inactive: 0.2%
CN(C(=O)Cc1ccccc1)[C@@H]1CC[C@]2(CCCO2)C[C@H]1N1CCCC1 | inactive: 1.6%
CCOP1(=S)c2c(C)nn(CCC#N)c2N=C(c2ccc(F)cc2)N1C (stereo not given) | inactive: 0.3%
COc1cc(C(=O)NCC2(N3CCOCC3)CCCCC2)cc(Cl)c1OC(C)C | inactive: -0.1%
O=[As](O)(O)c1cccnc1 | inactive: 0%
CS(=O)(=O)c1ccc(Cl)c(NC(=O)COC(=O)C(O)(c2ccccc2)c2ccccc2)c1 | inactive: -0.1%
O=C(OC1CN2CCC1CC2)c1ccc(Cl)cc1 (stereo not given) | inactive: 0%
O=[As](O)(c1cccc(O)c1)c1cccc(O)c1 | inactive: 0%
Cc1cccc(OCC(=O)OC2CN3CCC2CC3)c1 (stereo not given) | inactive: 0%
CCCOP(=S)(Nc1nc(N)cc(=O)[nH]1)OCCC | inactive: 0.1%
Cc1ccc(NCCc2c([N+](=O)[O-])cc([N+](=O)[O-])cc2[N+](=O)[O-])cc1 | inactive: 0.1%
Nc1cccc2c([As](=O)(O)O)cccc12 | inactive: 0.1%
COc1cc(C2NCCC3(OCCO3)C2(C)C)cc(OC)c1OC (stereo not given) | inactive: 0.1%
CCOP(=O)(Nc1cccc2ccccc12)OCC | inactive: 0.2%
